{
  "source": "ChEMBL document CHEMBL1143102",
  "about": "“Synthesis, radiofluorination, and in vitro evaluation of pyrazolo[1,5-a]pyridine-based dopamine D4 receptor ligands: discovery of an inverse agonist radioligand for PET” (J Med Chem, 2008)",
  "key": {"Homo sapiens [1]": {"species": "Homo sapiens", "experiment": "Selectivity for human dopamine D4.4 receptor over human dopamine D2S receptor"}, "Homo sapiens [2]": {"species": "Homo sapiens", "experiment": "Selectivity for human dopamine D4.4 receptor over human dopamine D2L receptor"}, "Homo sapiens [3]": {"species": "Homo sapiens", "experiment": "Selectivity for human dopamine D4.4 receptor over human dopamine D3 receptor"}},
  "data": [
    {"smiles": "FCCOc1ccccc1N1CCN(Cc2cnn3ccccc23)CC1", "values": [
      {"measurement": "Ratio Ki", "setting": "Homo sapiens [1]", "value": 112},
      {"measurement": "Ratio Ki", "setting": "Homo sapiens [2]", "value": 94},
      {"measurement": "Ratio Ki", "setting": "Homo sapiens [3]", "value": 200}
    ]}
  ]
}
